Experiment: In vivo pharmacokinetics, plasma and brain
Design: species or system mice
Conditions: intravenous 13 mg/kg

Substance: Echinacoside [Free ECH]
- AUC0-t (brain): 0.017 ± 0.005 µg·h/g
- Cmax (brain): 0.056 ± 0.027 µg/g
- MRT0-t (brain): 30.5 ± 5.7 min
- T1/2 (brain): 33.7 ± 6.84 min
- area under the curve (AUC0-t) (plasma (as printed in text)): 3.501 ± 0.733 µg·h/g
- AUC0-t (plasma): 3501 ± 733 ng·h/mL
- Cmax (plasma): 12422 ± 3041 ng/mL
- MRT0-t (plasma): 20.9 ± 0.18 min
- T1/2 (plasma): 22.8 ± 0.9 min
